Test results from patent US20080194546A1, “Pyrido-, Pyrazo- and Pyrimido-Pyrimidine Derivatives as mTOR Inhibitors” (KuDOS Pharmaceuticals Limited, priority 2005, published 2008).

Tests used:
mTOR = mTOR (Homo sapiens, UniProt P42345); assay: Biological Assay: mTOR enzyme activity, mTOR immunoprecipitated from HeLa cell cytoplasmic extract, recombinant PHAS-1 as substrate; format: biochemical; details: read-out: IC50, tested in the Biological Assay, PHAS-1 substrate
[1] = target: recombinant mTOR (FLAG-tagged, amino acid residues 1362 to 2549) (Homo sapiens, UniProt P42345); assay: Alternative Enzyme Assay: AlphaScreen, inhibition of phosphorylation by recombinant mTOR; format: biochemical; details: single values

COc1cc(-c2ccc3c(N4CCOCC4)nc(N4C[C@@H](C)O[C@@H](C)C4)nc3n2)cc(OC)c1O
IC50 (mTOR): 43 nM
IC50 [1]: 15 nM
